Measured values as given in publication PMC4386669 (Cell reports, 2014).

Protein sequences, listed by entry. Tags and fused reporters are not part of them.
UniProt P09874, whole entry: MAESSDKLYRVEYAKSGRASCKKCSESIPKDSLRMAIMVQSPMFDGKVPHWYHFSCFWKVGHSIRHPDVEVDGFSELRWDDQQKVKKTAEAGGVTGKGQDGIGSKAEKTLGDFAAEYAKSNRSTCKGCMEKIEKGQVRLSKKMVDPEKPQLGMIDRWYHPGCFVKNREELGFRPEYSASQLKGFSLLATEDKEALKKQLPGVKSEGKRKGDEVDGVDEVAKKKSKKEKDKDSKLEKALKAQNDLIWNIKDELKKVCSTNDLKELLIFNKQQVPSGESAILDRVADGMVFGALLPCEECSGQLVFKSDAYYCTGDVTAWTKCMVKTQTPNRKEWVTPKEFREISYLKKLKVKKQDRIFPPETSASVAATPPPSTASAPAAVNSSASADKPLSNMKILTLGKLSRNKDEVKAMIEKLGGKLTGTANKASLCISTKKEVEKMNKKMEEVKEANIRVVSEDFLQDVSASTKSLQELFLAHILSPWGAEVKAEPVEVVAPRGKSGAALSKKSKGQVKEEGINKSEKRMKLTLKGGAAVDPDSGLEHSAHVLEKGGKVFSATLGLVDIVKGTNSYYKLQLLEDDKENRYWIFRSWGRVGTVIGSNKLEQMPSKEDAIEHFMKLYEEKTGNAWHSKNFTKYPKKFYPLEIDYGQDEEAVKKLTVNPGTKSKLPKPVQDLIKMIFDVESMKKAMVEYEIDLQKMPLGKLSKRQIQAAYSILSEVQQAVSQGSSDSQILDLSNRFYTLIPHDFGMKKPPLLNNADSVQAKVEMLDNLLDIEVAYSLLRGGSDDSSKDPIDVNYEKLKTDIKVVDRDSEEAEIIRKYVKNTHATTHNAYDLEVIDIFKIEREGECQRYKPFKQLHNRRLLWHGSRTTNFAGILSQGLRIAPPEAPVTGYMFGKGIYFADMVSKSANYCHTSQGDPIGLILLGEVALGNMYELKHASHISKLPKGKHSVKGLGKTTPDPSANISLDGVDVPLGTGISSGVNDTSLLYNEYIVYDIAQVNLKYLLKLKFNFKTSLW

Target: PARP1 (Homo sapiens, UniProt P09874)
Conditions: 10 micromolar PARPi + 0.01% MMS

## Cn1ncnc1[C@H]1c2n[nH]c(=O)c3cc(F)cc(c23)N[C@@H]1c1ccc(F)cc1 [BMN-673]
  PARP trapping potential (rank order): BMN-673 > olaparib > veliparib
